Literature values, collected in patent publication US20110313056A1 (BIO SYNTECH CANADA INC., priority 2005, published 2011).

Details: literature (Voet and Voet); cited from earlier work

SMILES: O=P(O)(O)O [phosphate, inorganic phosphate]
- Ka3^P: ~12.4
